{
  "source": "paper PMC4032190",
  "about": "(Journal of medicinal chemistry, 2014)",
  "test_system": "XBP-1s expression",
  "assay": "Inhibition of XBP-1s expression in LPS-stimulated wild-type mouse B cells",
  "conditions": "20 µM, 24 h, immunoblot",
  "data": [
    {"compound": "C=CCOC(=O)N1CCc2c(c(=O)oc3c(C(=O)OC)c(O)ccc23)C1", "note": "[Compound 41, 3-Allyl 7-methyl 8-hydroxy-5-oxo-4,5-dihydro-1H-chromeno[3,4-c]pyridine-3,7(2H)-dicarboxylate]", "values": [
      {"measurement": "inhibition of XBP-1s expression", "value": "little to no inhibitory effect"}
    ]}
  ]
}
